Data published in patent US20130029959A1, “COMPOSITIONS AND METHODS FOR THE TREATMENT OF CANCER” (Massachusetts Institute of Technology, priority 2011, published 2013).

Legend:
[1] = all animals that survived past the first day
[2] = pH 7.4
[3] = Aquation in D2O by 1H NMR; conditions: 37° C.

Substance	mortality (Albino ICR mice; Phase 2, 4, 2.9, 2.1 and 1.5 mg/kg IV, three animals dosed each)	mortality (Albino ICR mice; Phase 2, Group 6, 5.6 mg/kg IV, three animals dosed)	mortality (Albino ICR mice; Phase 2, Group 7, 7.8 mg/kg IV, three animals dosed)	mortality (Albino ICR mice; Phase 2, Group 8, 10.8 mg/kg IV)	maximum tolerated dose (MTD) (Albino ICR mice; intravenous (tail vein), Albino ICR female mice)	change in body weight, in words [1]	half-life, reaction with 5′-dGMP [2] [h]	equilibrium constant for aquation [3]
cis-[Pt(NH3)2(phenanthridine)Cl]NO3 [phenanthriplatin]	no mortality was observed	One animal died within a few minutes after dosing	Two animals died within a few minutes after dosing	one animal died immediately after dosing	approximately 4 mg/kg	no significant change in body weight	3.2	approximately 0.05
pyriplatin								approximately 0.05

Read-outs that look alike come from different tables or passages of the source.
